The experiment concerns the target T1, recombinant human TNFα (human, UniProt P01375 77-233, 125I-labeled in the receptor-blocking assay ; 125I-labelled (positions not stated) only in the receptor-blocking assay; soluble homotrimer of this 17 kD subunit).
T1 construct: also called huTNFα; soluble human tumor necrosis factor alpha
Briefly: competition radioligand assay: cA2 spiked into anti-IL-18 control supernatant, preincubated with 5 ng/ml 125I-TNFα, then 125I-TNFα bound to plate-coated p55-sf2 (TNF receptor/IgG fusion) counted as cpm.

Chains of the proteins cited; added tags and fusions are not shown. Residues count along the entry.
UniProt P01375, 77-233 limits assumed: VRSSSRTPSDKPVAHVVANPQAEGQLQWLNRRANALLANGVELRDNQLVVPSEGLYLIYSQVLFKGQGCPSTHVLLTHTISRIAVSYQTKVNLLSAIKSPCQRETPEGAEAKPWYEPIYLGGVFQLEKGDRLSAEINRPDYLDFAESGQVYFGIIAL

B1: chimeric antibody cA2 (antibody, V domains shown)
VH: EVKLEESGGGLVQPGGSMKLSCVASGFIFSNHWMNWVRQSPEKGLEWVAEIRSKSINSATHYAESVKGRFTISRDDSKSAVYLQMTDLRTEDTGVYYCSRNYYGSTYDYWGQGTTLTVS
VL: DILLTQSPAILSVSPGERVSFSCRASQFVGSSIHWYQQRTNGSPRLLIKYASESMSGIPSRFSGSGSGTDFTLSINTVESEDIADYYCQQSHSWPFTFGSGTNLEVK
For B1, the “IC50 (read off the curve)” value was roughly 10 ng/mL.

Source of the values: patent publication US20220144934A1 (Janssen / Centocor, published 2022).
